Data on two molecules can be found in BindingDB's records for doi:10.1002/cbic.200400084 (Laboratorium FÜR Organische Chemie, 2004).

For this assay, the target named is T1, Catechol O-methyltransferase (Rattus norvegicus, UniProt P22734).
T1 sequence (P22734 whole entry): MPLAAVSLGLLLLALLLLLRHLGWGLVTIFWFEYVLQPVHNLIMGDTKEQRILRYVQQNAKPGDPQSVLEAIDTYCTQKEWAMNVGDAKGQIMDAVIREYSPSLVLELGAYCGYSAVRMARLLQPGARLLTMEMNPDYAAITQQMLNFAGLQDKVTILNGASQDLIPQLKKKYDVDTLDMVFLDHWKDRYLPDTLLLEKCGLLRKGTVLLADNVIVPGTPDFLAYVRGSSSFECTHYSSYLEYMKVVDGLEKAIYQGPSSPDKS
Kind of assay: Radiochemical Assay. As to conditions: 37 °C. The method, then: The binding affinity of the inhibitors towards Catechol O-methyltransferase in the presence of Mg2+ ions were determined by using a radiochemical assay.

pIC50: −log10 of the molar value.

The pIC50 is the negative decadic logarithm of the IC50, by convention in mol/L. A higher pIC50 goes with a low IC50. The molecule `Nc1ncnc2c1ncn2[C@@H]1O[C@H](/C=C/CNC(=O)c2cc(-c3nc4ccccc4s3)cc(O)c2O)[C@@H](O)[C@H]1O` [Bi-substrate Inhibitor, 1g] gave a pIC50 of 7.54.

On to `CC(C)c1cc(O)c(O)c(C(=O)NC/C=C/[C@H]2O[C@@H](n3cnc4c(N)ncnc43)[C@H](O)C2O)c1` (some centres not stated) [Bi-substrate Inhibitor, 1r], for which the pIC50 is 5.86.
